Earlier results on one molecule are cited in patent US20090181086A1 (priority 2008, published 2009).

Read-outs that look alike come from different tables or passages of the source.

For `C#CCN[C@@H]1CCc2ccccc21.CS(=O)(=O)O` [Rasagiline mesylate, 1H-Inden-1-amine, 2,3-dihydro-N-2-propynyl-, (1R)-, methanesulfonate], the “solubility, in words” value is listed as “freely soluble” (ethanol), “sparingly soluble” (isopropanol) and “freely soluble” (water).
